## Membrane permeability of cyclic peptides

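Conditions beyond the assay type are not listed; see the original paper. The list need not hold all peptides of the study. Peptides that the database sets to -10, its floor, are left out.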

PAMPA is the parallel artificial membrane permeability assay, which has no cells and reads passive diffusion.
P is given in units of 10^-6 cm/s (from log10 values with two decimals); larger means faster passage.

compound	PAMPA (10^-6 cm/s)
CC(C)C[C@H]1NC(=O)[C@H](C)NC(=O)[C@H](Cc2ccccc2)NC(=O)[C@@H](CC(C)C)NC(=O)[C@H]2CCCN2C(=O)C[C@H](Cc2ccccc2)NC1=O	9.1
CC(C)C[C@@H]1NC(=O)[C@H](CC(C)C)N(C)C(=O)[C@H](C)N(C)C(=O)[C@H]2CCCN2C(=O)[C@H](Cc2ccccc2)NC(=O)[C@@H](CC(C)C)NC(=O)[C@H]2CCCN2C1=O	3.7
CC(C)C[C@@H]1NC(=O)[C@@H]2CCCN2C(=O)[C@@H](CC(C)C)N(C)C(=O)[C@@H](CC(C)C)NC(=O)C[C@H](Cc2ccccc2)NC(=O)[C@@H]2CCCN2C(=O)[C@H](Cc2ccccc2)NC1=O	4.1
CCCN1CC(=O)N[C@@H](CC(C)C)C(=O)N(Cc2ccccc2)CC(=O)N2CCC[C@H]2C(=O)N(C)[C@H](CC(C)C)C(=O)N[C@@H](Cc2ccccc2)C(=O)N2CCC[C@H]2C1=O	3.9
CC(C)C[C@@H]1NC(=O)[C@H]2CCCN2C(=O)[C@H](CC(C)C)NC(=O)CN(Cc2ccccc2)C(=O)[C@@H](C)N(C)C(=O)[C@H](Cc2ccccc2)NC1=O	1.5
CC(C)C[C@@H]1NC(=O)[C@H](C)NC(=O)[C@H](Cc2ccccc2)NC(=O)[C@@H](CC(C)C)N(C)C(=O)[C@H]2CCCN2C(=O)[C@@H](CC(C)C)NC1=O	0.41
CCCN1CC(=O)N(C)[C@@H](CC(C)C)C(=O)N(C)[C@@H](CC(C)C)C(=O)N2CCC[C@@H]2C(=O)N[C@H](CC(C)C)C(=O)N[C@@H](Cc2ccccc2)C1=O	4.8
CC(C)C[C@@H]1NC(=O)C[C@H](Cc2ccccc2)NC(=O)[C@H](Cc2ccccc2)NC(=O)[C@@H](CC(C)C)N(C)C(=O)[C@H]2CCCN2C(=O)[C@H](CC(C)C)N(C)C1=O	6.2
CC(C)C[C@H]1NC(=O)[C@@H](C)N(C)C(=O)[C@H](Cc2ccccc2)NC(=O)CN(Cc2ccccc2)C(=O)[C@@H]2CCCN2C(=O)CN(Cc2ccccc2)C1=O	3.7
CC(C)C[C@@H]1NC(=O)C[C@H](Cc2ccccc2)NC(=O)[C@H]2CCCN2C(=O)[C@H](Cc2ccccc2)NC(=O)[C@@H](CC(C)C)NC(=O)[C@@H]2CCCN2C(=O)CN(Cc2ccccc2)C1=O	2.1
CC(C)C[C@@H]1NC(=O)[C@@H]2CCCN2C(=O)[C@H](CC(C)C)N(C)C(=O)[C@@H](CC(C)C)NC(=O)C[C@H](Cc2ccccc2)NC(=O)[C@H]2CCCN2C(=O)[C@H](Cc2ccccc2)NC1=O	2.9
CC(C)C[C@@H]1NC(=O)[C@@H]2CCCN2C(=O)C[C@H](Cc2ccccc2)NC(=O)[C@@H](CC(C)C)N(C)C(=O)[C@H](C)N(C)C(=O)[C@H]2CCCN2C(=O)[C@H](Cc2ccccc2)NC1=O	0.65
CC(C)C[C@@H]1C(=O)N[C@@H](Cc2ccccc2)C(=O)N2CCC[C@H]2C(=O)N[C@@H](C)C(=O)N(C)[C@@H](CC(C)C)C(=O)N[C@H](CC(C)C)C(=O)N2CCC[C@@H]2C(=O)N1C	1.9
CCCN1CC(=O)N[C@@H](CC(C)C)C(=O)N[C@@H](CC(C)C)C(=O)N2CCC[C@@H]2C(=O)N(C)[C@H](CC(C)C)C(=O)N[C@@H](Cc2ccccc2)C(=O)N2CCC[C@@H]2C1=O	6.6
CCCN1CC(=O)N(C)[C@@H](CC(C)C)C(=O)N[C@@H](CC(C)C)C(=O)N2CCC[C@H]2C(=O)N(C)[C@H](CC(C)C)C(=O)N[C@@H](Cc2ccccc2)C(=O)N2CCC[C@H]2C1=O	6.8
CCCN1CC(=O)N[C@H](CC(C)C)C(=O)N[C@@H](CC(C)C)C(=O)N2CCC[C@@H]2C(=O)N[C@H](CC(C)C)C(=O)N[C@@H](Cc2ccccc2)C1=O	6.6
CC(C)C[C@@H]1NC(=O)[C@@H]2CCCN2C(=O)C[C@H](Cc2ccccc2)NC(=O)[C@@H](CC(C)C)NC(=O)[C@H](C)NC(=O)[C@H](Cc2ccccc2)NC1=O	0.25
CCCN1CC(=O)N(C)[C@@H](CC(C)C)C(=O)N[C@H](CC(C)C)C(=O)N2CCC[C@@H]2C(=O)N(C)[C@@H](CC(C)C)C(=O)N[C@@H](Cc2ccccc2)C(=O)N2CCC[C@@H]2C1=O	6.9

The 2 highest values of PAMPA among the entries above:

compound	PAMPA (10^-6 cm/s)
CC(C)C[C@H]1NC(=O)[C@H](C)NC(=O)[C@H](Cc2ccccc2)NC(=O)[C@@H](CC(C)C)NC(=O)[C@H]2CCCN2C(=O)C[C@H](Cc2ccccc2)NC1=O	9.1
CCCN1CC(=O)N(C)[C@@H](CC(C)C)C(=O)N[C@H](CC(C)C)C(=O)N2CCC[C@@H]2C(=O)N(C)[C@@H](CC(C)C)C(=O)N[C@@H](Cc2ccccc2)C(=O)N2CCC[C@@H]2C1=O	6.9

Values of Townsend et al. 2020, doi:10.26434/chemrxiv.13335941.v1, as listed in CycPeptMPDB.